Reference: PubChem BioAssay AID1224865 (Sanford-Burnham Center for Chemical Genomics, 2016)
Only a part is listed here, and it is no random draw. Calls of active or inactive are those of the source. Cut-off read from the data, not from the text of the source: active = activity change above about 30% (passing the limit was not always enough); inactive = the rest.

Chains of the proteins cited; added tags and fusions are not shown. Lines headed by an entry give the natural chain unless they say otherwise; changes in a name come on top.
UniProt P41235: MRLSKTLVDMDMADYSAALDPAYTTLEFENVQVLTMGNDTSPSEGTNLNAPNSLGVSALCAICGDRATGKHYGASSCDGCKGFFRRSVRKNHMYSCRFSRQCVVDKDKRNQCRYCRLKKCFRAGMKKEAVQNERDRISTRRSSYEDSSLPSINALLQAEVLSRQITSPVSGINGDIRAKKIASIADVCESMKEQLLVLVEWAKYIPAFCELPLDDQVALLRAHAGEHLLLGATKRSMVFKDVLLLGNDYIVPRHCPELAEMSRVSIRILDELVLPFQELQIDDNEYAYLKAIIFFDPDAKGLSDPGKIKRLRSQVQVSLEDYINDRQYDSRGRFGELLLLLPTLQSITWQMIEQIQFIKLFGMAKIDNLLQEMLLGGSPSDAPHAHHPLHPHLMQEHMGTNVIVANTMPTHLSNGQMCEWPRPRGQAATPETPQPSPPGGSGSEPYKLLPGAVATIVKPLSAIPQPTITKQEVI

target: Hepatocyte nuclear factor 4-alpha (Homo sapiens) (UniProt P41235); assay: change in binding of human HNF4A to DNA, primary screen, biochemical, fluorescence polarization, FITC-DNA (AID 1224865); details: 1 h, at 10 µM, stronger effect = higher value

Compound | activity change
Nc1cccc2c([As](=O)(O)O)cccc12 | active: 56.4%
